# In PubChem BioAssay AID2648 (Johns Hopkins Ion Channel Center, 2010):
# Amino acid sequences for entries named in this document (tags omitted).
# UniProt P51787, whole entry: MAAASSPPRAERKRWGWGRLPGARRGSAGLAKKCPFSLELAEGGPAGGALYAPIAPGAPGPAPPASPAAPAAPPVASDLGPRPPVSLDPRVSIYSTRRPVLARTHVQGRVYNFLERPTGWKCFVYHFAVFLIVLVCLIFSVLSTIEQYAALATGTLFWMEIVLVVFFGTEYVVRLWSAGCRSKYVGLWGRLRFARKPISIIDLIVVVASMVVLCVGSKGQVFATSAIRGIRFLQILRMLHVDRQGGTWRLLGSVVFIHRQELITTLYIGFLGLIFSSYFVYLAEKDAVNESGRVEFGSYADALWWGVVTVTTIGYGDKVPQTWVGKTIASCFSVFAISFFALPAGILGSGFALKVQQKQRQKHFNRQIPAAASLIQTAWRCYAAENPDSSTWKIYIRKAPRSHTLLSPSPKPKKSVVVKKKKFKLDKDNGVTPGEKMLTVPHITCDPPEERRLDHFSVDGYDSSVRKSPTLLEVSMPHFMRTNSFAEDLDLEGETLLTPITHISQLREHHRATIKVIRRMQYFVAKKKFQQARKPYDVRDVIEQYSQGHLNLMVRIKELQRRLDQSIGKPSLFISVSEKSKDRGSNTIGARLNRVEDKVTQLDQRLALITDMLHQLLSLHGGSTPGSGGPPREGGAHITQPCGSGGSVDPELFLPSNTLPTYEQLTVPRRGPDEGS
# This is a selection; strong and weak results do not stand in their true shares. Calls of active or inactive are those of the source.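 How the source made its calls: active means fluorescence ratio B-score, a plate-corrected score, at least three library SD, with initial intensity B-score within 5 SD; inactive means the rest.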
# Molecular target: Potassium voltage-gated channel subfamily KQT member 1 (Homo sapiens) (UniProt P51787)
# Experiment: human KCNQ1 current enhancers – cell-based, thallium flux, high-throughput, primary screen (AID 2648)
# Details: CHO-K1 KCNQ1, thallium flux FluxOR fluorescence; at 10 µM
row,Structure (SMILES),outcome
1,COc1cc(C(=O)NCC2(N(C)C)CCCCC2)ccc1OC(F)F,inactive
2,CCOC(=O)N1CCC(Nc2cccc(C)c2)CC1,inactive
3,Cc1ccc(OCC(C)C)c(CN(CCCl)CCCl)c1,inactive
4,CCOc1ccc(C)cc1CN(CCCl)CCCl,inactive
5,O=C(NCC1(N2CCCCC2)CCCCC1)c1ccc(F)cc1,inactive
6,COc1ccc(NC2CCN(CCc3ccccc3)CC2)c(OC)c1,inactive
7,CCOC(=O)N1CCC(Nc2ccc(F)cc2)CC1,inactive
8,O=C(NCC1(N2CCOCC2)CCCCC1)c1cc2ccccc2o1,inactive
9,O=C(NCC1(N2CCCCC2)CCCCC1)c1ccc(Cl)nc1,inactive
10,Cc1cc(C)cc(N(C(=O)c2ccccc2)C2CCN(C(=O)OC(C)(C)C)CC2)c1,inactive
11,CCOC(=O)N1CCC(Nc2ccc(OC)cc2)CC1,inactive
12,O=C(OC1CN2CCC1CC2)C1c2ccccc2Oc2ccccc21 (centres undefined),inactive
13,N#CC1(Nc2ccccc2)CCN(Cc2ccccc2)CC1,inactive
14,O=C(NCC1(N2CCCCC2)CCCCC1)c1ccc(=O)[nH]c1,inactive
15,O=C(NCC1(N2CCCCC2)CCCCC1)c1cccs1,inactive
16,COc1ccc(C(=O)NCC2(N3CCCCC3)CCCCC2)cc1,inactive
17,CC(C)(C)OC(=O)N1CCC(N(C(=O)c2ccccc2)c2ccc(F)cc2)CC1,inactive
18,COc1ccc(C(=O)NCC2(N3CCCCC3)CCCCC2)c(OC)c1OC,inactive
19,CSc1ccccc1C(=O)NCC1(N2CCCCC2)CCCCC1,inactive
20,CN1CCC(Nc2cccc(F)c2)CC1,inactive

row,Structure (SMILES),outcome
1,CCCOc1ccc(C(=O)NCC2(N(C)C)CCCCC2)cc1OC,inactive
2,COc1ccc(CN(CCCl)CCCl)cc1Cl,inactive
3,CN(C)c1cccc(C(=O)NCC2(N3CCCCC3)CCCCC2)c1,inactive
4,CC(C)c1ccc(NC2CCN(C(=O)OC(C)(C)C)CC2)cc1,inactive
5,COc1cc(OC)c(C(=O)NCC2(N(C)C)CCCCC2)cc1OC,inactive
6,O=C(NCC1(N2CCCCC2)CCCCC1)c1cccc(C(F)(F)F)c1,inactive
7,CN1CCN(CCOC(=O)C(O)(c2ccccc2)c2ccccc2)CC1,inactive
8,COc1ccc(NC2CCN(C(=O)OC(C)(C)C)CC2)cc1,inactive
9,COc1cc(C(=O)NCC2(N3CCCCC3)CCCCC2)ccc1OC(F)F,inactive
10,O=C(NCC1(N2CCOCC2)CCCCC1)c1cc(=O)[nH]c2ccccc12,inactive
11,O=C(NCC1(N2CCCCC2)CCCCC1)c1ccc(OC(F)F)cc1,inactive
12,O=C(NCC1(N2CCCCC2)CCCCC1)c1cccc([N+](=O)[O-])c1,inactive
13,CCN1CCC(Nc2ccc(Cl)cc2)CC1,inactive
14,N#CC1(Nc2ccccc2)CCN(CCc2ccccc2)CC1,inactive
15,c1ccc(CN2CCC(Nc3ccccc3)CC2)cc1,inactive
16,CCCN1CCC(Nc2cc(OC)cc(OC)c2)CC1,inactive
17,CN(C)C1(CNC(=O)c2cccc(C#N)c2)CCCCC1,inactive
18,CC(C)(C)OC(=O)N1CCC(N(C(=O)c2ccccc2)c2ccc(Cl)cc2)CC1,inactive
19,N#Cc1ccc(C(=O)NCC2(N3CCCCC3)CCCCC2)cc1,inactive
20,N/C(=N\O)c1c(N)no[n+]1[O-],inactive

row,Structure (SMILES),outcome
1,CCOC(=O)N1CCC(Nc2ccc(C)cc2)CC1,inactive
2,O=C(OC1CN2CCC1CC2)C1c2ccccc2C=Cc2ccccc21 (centres undefined),inactive
3,CCc1cc(C(=O)NCC2(N3CCCCC3)CCCCC2)sc1C,inactive
4,COc1ccc(C(=O)NCC2(N3CCOCC3)CCCCC2)cc1OC,inactive
5,CCC(CO)(C(=O)OC1CN2CCC1CC2)c1ccccc1 (centres undefined),inactive
6,COc1cc(OC)cc(C(=O)NCC2(N3CCOCC3)CCCCC2)c1,inactive
7,COc1cccc(C(=O)N(c2cc(C)cc(C)c2)C2CCN(C(=O)OC(C)(C)C)CC2)c1,inactive
8,CCCOc1ccc(C)cc1CN(CCCl)CCCl,inactive
9,CN1CCC(Nc2ccc(Cl)cc2)CC1,inactive
10,CCOc1ncccc1C(=O)NCC1(N2CCOCC2)CCCCC1,inactive
11,CN1CCC(Nc2ccc(F)c(Cl)c2)CC1,inactive
12,CCCOc1ccc(C(=O)NCC2(N(C)C)CCCCC2)cc1,inactive
13,CC(C)(C)OC(=O)N1CCC(Nc2ccccc2)CC1,inactive
14,O=C(O)C1(Nc2ccccc2)CCN(Cc2ccccc2)CC1,inactive
15,CCN1CCC(Nc2cccc(F)c2)CC1,inactive
16,CN(C)c1ccc(C(=O)NCC2(N3CCCCC3)CCCCC2)cc1,inactive
17,COc1cc(OC)cc(C(=O)NCC2(N3CCCCC3)CCCCC2)c1,inactive
18,Cc1ccc(C(=O)NCC2(N3CCCCC3)CCCCC2)o1,inactive
19,Fc1ccccc1NC1CCN(Cc2ccccc2)CC1,inactive
